# Assay outcomes as filed in PubChem.
# Compounds with a hit are over-represented: about 1.3% of the library has one in this group of screens.
# UUG fidelity: alters start codon recognition fidelity in yeast. 350,000 tested, 0.13% active. activity score, % at 18.7 µM. S. cerevisiae UUG-firefly luciferase reporter, luminescence/redox ratio;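 active = replicate mean at a twofold rise or more, about +100% in these data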;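 also: firefly luciferase made from a UUG start codon reports start codon fidelity; reporter light over untreated wells divided by growth signal over untreated wells; some hits fall short of that in this replicate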
# INS-1E GSIS act: GLuc luminescence reporter in INS-1E cells, primary screen for activators of glucose-dependent secretion of insulin | activation, % at 16.6 µM | INS-1E GLuc reporter insulin secretion, 2-3 h | 0.61% of 370,000 active;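 active means lowest replicate activation of at least 40%, so every replicate reaches that level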;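 further: 0% = median of neutral control wells and 100% = median of IBMX positive control wells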
# SR-BI DiI-HDL act: activators of SR-BI mediated DiI-HDL uptake, primary screen, ldlA[mSR-BI] CHO cells, DiI fluorescence; 3 h; 100 = double the neutral-control signal; activation, % at 12.5 µM; 0.096% of 320,000 active; AID 504775, 2011;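 active means mean replicate activation of at least 60% and every replicate at or above 60%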;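 further: 0% = median plate neutral-control signal and 100% = twice that signal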
#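 Test system: SR-BI-overexpressing, LDLR-lacking CHO cells; Medium: Ham's F12 with 0.5% BSA, HEPES 25 mM, pH 7.4; Schedule: 3 h, 37 °C; Technique: bottom-read fluorescence, 550/595 nm.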
# SR-BI DiI inh: inhibitors of SR-BI mediated HDL lipid uptake, primary screen, ldlA[mSR-BI] cells, fluorescence, single point | AID 488896, 2010 | inhibition, % at 12.5 µM | Scavenger receptor class B member 1 (Mus musculus), Q61009 | 0.96% of 320,000 active | ldlA[mSR-BI] CHO cells, DiI-HDL uptake fluorescence, 3 h;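 active means mean replicate inhibition of at least 70% and a set share of replicates each scoring 70 or more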;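 further: 0% = median of neutral control wells and 100% = median of positive control wells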
# Active calls of the source: *; . = no result given.
# Abbreviations: A = UUG fidelity; B = INS-1E GSIS act; C = SR-BI DiI-HDL act; D = SR-BI DiI inh
> C[C@@H]1CCCCO[C@H](CN(C)C(=O)Nc2ccc3c(c2)OCO3)[C@@H](C)CN([C@H](C)CO)C(=O)c2cc(NC(=O)Nc3ccc4c(c3)OCO4)ccc2O1
  A: 10; B: 9; C: .; D: .

> Cc1nc2ccc(C(=O)Nc3cccc([N+](=O)[O-])c3)cc2s1
  A: -2; B: 14; C: -74; D: 74*

> COc1ccc(C(=O)Nc2cccc(/C(C)=N/NC(=O)c3ccc([N+](=O)[O-])cc3)c2)cc1OC
  A: -4; B: .; C: -71; D: 71*

> COc1ccc(C(=O)Nc2cccc([N+](=O)[O-])c2)cc1Br
  A: 3; B: 9; C: -83; D: 83*

> O=C(Nc1cccc([N+](=O)[O-])c1)c1cccc(C(=O)Nc2cccc([N+](=O)[O-])c2)c1
  A: -14; B: -5; C: 8; D: -8

> Cc1ccccc1NS(=O)(=O)c1cc(C(=O)Nc2cccc([N+](=O)[O-])c2)ccc1C
  A: .; B: -15; C: -72; D: 72*

> CCCNC(=O)N(C)C[C@@H]1Oc2cc(C3=CCCCC3)ccc2S(=O)(=O)N([C@@H](C)CO)C[C@@H]1C
  A: 1; B: -1; C: .; D: .

> O=C(C[C@@H]1CC[C@H](NC(=O)C2CCOCC2)[C@@H](CO)O1)NCC1CC1
  A: .; B: -1; C: .; D: .

> CCC(C)Oc1cc(-c2ccnc(Nc3cccc(Cl)c3)n2)ccn1 (stereo unspecified)
  A: -12; B: -11; C: -26; D: 26

> OCCCNc1cc(-c2ccnc(Nc3cccc(Cl)c3)n2)ccn1
  A: -5; B: -8; C: -82; D: 82*

> COc1ccc2c3c([nH]c2c1)[C@H](CO)N(C(=O)c1ccc(F)cc1)CC31CN(C(=O)Nc2ccc(F)cc2)C1
  A: .; B: 0; C: .; D: .

> CCN=c1scc(C)n1/N=C/c1cc(Br)c(O)c(OC)c1
  A: .; B: 17; C: -72; D: 72*

> O=C(Nc1cccnc1)/C(N=Nc1ccc(Cl)c(C(F)(F)F)c1)=C(\O)c1ccccc1
  A: .; B: 27; C: -77; D: 77*

> CCCNC(=O)N1CC2(C1)CN(C(=O)COC)[C@H](CO)c1[nH]c3cc(OC)ccc3c12
  A: .; B: 0; C: .; D: .

> Cc1nc(C(=O)Nc2cc(F)cc(Cl)c2)sc1C1(C)CC(c2ccccc2)=NO1 (stereo unspecified)
  A: -12; B: -18; C: -80; D: 80*

# Shown with values under each structure: entries from further up.
# Sequence of screens – UUG fidelity	INS-1E GSIS act	SR-BI DiI-HDL act	SR-BI DiI inh
Cc1ccccc1NS(=O)(=O)c1cc(C(=O)Nc2cccc([N+](=O)[O-])c2)ccc1C
 : .	-15	-72	72*
O=C(Nc1cccnc1)/C(N=Nc1ccc(Cl)c(C(F)(F)F)c1)=C(\O)c1ccccc1
 : .	27	-77	77*

# Next entries.
# Abbreviations: A = UUG fidelity; B = INS-1E GSIS act; C = SR-BI DiI-HDL act; D = SR-BI DiI inh
> Cc1nc(C(=O)NC2CC2)sc1C1(C)CC(c2ccccc2)=NO1 (stereo unspecified)
  A: -12; B: -8; C: -31; D: 31

> Cc1nc(C(=O)NC2CCCCC2)sc1C1(C)CC(c2cccc([N+](=O)[O-])c2)=NO1 (stereo unspecified)
  A: -6; B: 10; C: -76; D: 76*

> CNC(=O)c1nc(C)c(C2(C)CC(c3ccccc3)=NO2)s1 (stereo unspecified)
  A: 2; B: 2; C: 10; D: -10

> Cc1nc(-c2ccccc2)sc1C1(C)CC(c2cccc([N+](=O)[O-])c2)=NO1 (stereo unspecified)
  A: -10; B: -12; C: 2; D: -2

> Cc1nc(C(=O)Nc2ccc(Cl)cc2)sc1C1(C)CC(c2cccc([N+](=O)[O-])c2)=NO1 (stereo unspecified)
  A: 3; B: 7; C: -77; D: 77*

> O=C(N[C@H]1CC[C@@H](CCn2cc(-c3ccccc3)nn2)O[C@@H]1CO)c1ccccc1F
  A: 7; B: 5; C: .; D: .

> CCOC(=O)N1CCN(C(=O)c2ccc3c(=O)n(CCC4=CCCCC4)c(=S)[nH]c3c2)CC1
  A: 0; B: .; C: 7; D: -7

> O=c1c2ccc(Cl)cc2[nH]c(=S)n1CCC1=CCCCC1
  A: .; B: 166*; C: -45; D: 45

> C/C(CS(=O)(=O)c1ccc(Cl)c(Cl)c1)=N/NC(N)=S
  A: .; B: 2; C: -81; D: 81*

> C/C(CS(=O)(=O)c1ccc(Cl)cc1)=N/NC(N)=S
  A: -9; B: -13; C: -57; D: 57

> CO[C@@H]1CN(C)C(=O)c2ccc(NC(=O)Nc3c(C)noc3C)cc2OC[C@@H](C)N(C)C[C@H]1C
  A: 8; B: 5; C: .; D: .

> CC(=O)c1ccc(OCC(O)CN2CCN(S(=O)(=O)c3c(C)c(C)cc(C)c3C)CC2)cc1 (stereo unspecified)
  A: 5; B: -34; C: -86; D: 86*

> Cc1cc(Cl)ccc1Oc1nc(-c2ccccc2)ncc1S(C)(=O)=O
  A: -16; B: 150*; C: -1; D: 1

> Cc1cccc(C)c1Oc1nc(-c2ccccc2)ncc1S(=O)(=O)c1ccccc1
  A: .; B: .; C: 15; D: -15

> CO[C@H]1CN(C)C(=O)c2cc(NC(=O)c3cc(C)on3)ccc2OC[C@H](C)N(C(=O)C2CC2)C[C@H]1C
  A: 8; B: 14; C: .; D: .
